In patent US6472438B1, “Active topical skin protectants containing S-330” (dated 2002):

Experiment: Reaction of S-330 with nerve agents

N=C1N(Cl)C2(c3ccccc3)N(Cl)C(=N)N(Cl)C2(c2ccccc2)N1Cl (stereo not shown)
Reactivity with nerve agents: does not react with nerve agents
